Results published in patent publication US9771592B2, “Methods and compositions for treating or preventing pruritis” (The Johns Hopkins University, priority 2008, dated 2017).

System: rat DRG neurons
Experiment: Calcium imaging of cultured rat DRG neurons

SMILES: CCN(CC)CCCC(C)Nc1ccnc2cc(Cl)ccc12 (stereo not shown) [CQ, Chloroquine]
- percentage of total rat DRG neurons responding: 15%
